{
  "source": "patent US20100047176A1",
  "about": "“Method and Kit for Testing Stress Effects in Living Organisms” (AARHUS UNIVERSITET, priority 2007, published 2010)",
  "origin": "cited, not measured here",
  "test_system": "fish and aquatic invertebrates",
  "conditions": "if it reaches water bodies",
  "data": [
    {"smiles": "N#Cc1cc(Br)c(O)c(Br)c1", "note": "[Bromoxynil]", "values": [
      {"measurement": "toxicity to fish / aquatic invertebrates", "value": "potentially harmful to fish and aquatic invertebrates"}
    ]}
  ]
}
